Measured values published in patent US20240376128A1, “N-CYCLOPROPYLPYRIDO [4, 3-D] PYRIMIDIN-4-AMINE DERIVATIVES AND USES THEREOF” (Jacobio Pharmaceuticals Co., Ltd., priority 2021, published 2024).
Like-named read-outs stand apart in the source and are kept apart here.

The chains behind the UniProt entries cited, without tags or fusion partners. Where a name states a change or a piece, a line headed by the entry shows the natural chain unless it says otherwise.
UniProt P01116: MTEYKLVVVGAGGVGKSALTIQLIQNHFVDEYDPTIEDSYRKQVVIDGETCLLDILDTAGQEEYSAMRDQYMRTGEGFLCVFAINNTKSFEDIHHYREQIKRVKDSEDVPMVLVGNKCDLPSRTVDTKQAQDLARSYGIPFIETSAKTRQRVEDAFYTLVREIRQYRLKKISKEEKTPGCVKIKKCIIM

How the values were obtained:
[1] = biological target: K-Ras G12D (Homo sapiens, UniProt P01116, G12D); assay: SOS1 catalyzed nucleotide exchange assay (GDP form K-Ras), TR-FRET; details: read-out: Biochemical assays, IC50, K-Ras G12D GDP
[2] = system: NCI-H747 cell line (K-Ras G13D); assay: Phospho-ERK1/2(THR202/TYR204) HTRF assay; format: cell-based; details: Homo sapiens; NCI-H747 cells (K-Ras G13D), 2 hours incubation; read-out: p-ERK, IC50(nM) NCI-H747
[3] = system: K-Ras mutant and K-Ras WT cell lines indicated in Table 20; assay: 3D cell growth inhibition assay (CellTiter-Glo 3D, 6 days); format: cell-based; details: Homo sapiens, 144 h
[4] = Capan-2 (K-Ras G12V), absolute IC50, read-out: Cell Growth Inhibition, IC50, Capan-2
[5] = NCI-H747 (K-Ras G13D), absolute IC50, read-out: Cell Growth Inhibition, IC50, NCI-H747

Row | SMILES | IC50 [1] [µM] | IC50 [2] [nM] | IC50 [3, 4] [µM] | IC50 [3, 5] [µM]
1 | C#Cc1c(F)ccc2cc(O)cc(-c3ncc4c(N(CC)C5CC5)nc(OC[C@@]56CCCN5C[C@H](F)C6)nc4c3F)c12 [Compound 47, 4-(4-(cyclopropyl(ethyl)amino)-8-fluoro-2-(((2R,7aS)-2-fluorotetrahydro-1H-pyrrolizin-7a(5H)-yl)methoxy)pyrido[4,3-d]pyrimidin-7-yl)-5-ethynyl-6-fluoronaphthalen-2-ol] | 0.00172 | 16.8 | 0.231 | 0.0574
2 | C#Cc1c(F)ccc2cc(O)cc(-c3ncc4c(N(C)C5CC5)nc(OC[C@@]56CCCN5C[C@H](F)C6)nc4c3F)c12 [Compound 1, 4-(4-(cyclopropyl(methyl)amino)-8-fluoro-2-(((2R,7aS)-2-fluorotetrahydro-1H-pyrrolizin-7a(5H)-yl)methoxy)pyrido[4,3-d]pyrimidin-7-yl)-5-ethynyl-6-fluoronaphthalen-2-ol] | 0.0039 | 6.5 | 0.112 | 0.0485
3 | [2H]C([2H])([2H])N(c1nc(OC([2H])([2H])[C@@]23CCC([2H])([2H])N2C[C@]([2H])(F)C3)nc2c(F)c(-c3cc(O)cc4ccc(F)c(C#C)c34)ncc12)C1CC1 [Compound 26, 4-(4-(cyclopropyl(methyl-d3)amino)-8-fluoro-2-(((2R,7aS)-2-fluorotetrahydro-1H-pyrrolizin-7a(5H)-yl-2,5,5-d3)methoxy-d2)pyrido[4,3-d]pyrimidin-7-yl)-5-ethynyl-6-fluoronaphthalen-2-ol] | 0.00692 | 18.8 |  | 0.0992
4 | C#Cc1c(F)ccc2cc(O)cc(-c3ncc4c(N(CC)[C@@H]5C[C@H]5F)nc(OC[C@@]56CCCN5C[C@H](F)C6)nc4c3F)c12.O=C(O)C(F)(F)F (mixture of isomers) [Compound 6, 4-(4-(ethyl(trans-2-fluorocyclopropyl)amino)-8-fluoro-2-(((2R,7aS)-2-fluorotetrahydro-1H-pyrrolizin-7a(5H)-yl)methoxy)pyrido[4,3-d]pyrimidin-7-yl)-5-ethynyl-6-fluoronaphthalen-2-ol 2,2,2-trifluoroacetic acid] | 0.00132 | 7.9 | 0.121 | 0.0229
5 | C#Cc1c(F)ccc2cc(O)cc(-c3ncc4c(N(C)[C@H]5C[C@@H]5F)nc(OC[C@@]56CCCN5C[C@H](F)C6)nc4c3F)c12 [Compound 3A, 5-ethynyl-6-fluoro-4-(8-fluoro-4-(((1S,2S)-2-fluorocyclopropyl)(methyl)amino)-2-(((2R,7aS)-2-fluorotetrahydro-1H-pyrrolizin-7a(5H)-yl)methoxy)pyrido[4,3-d]pyrimidin-7-yl)naphthalen-2-ol] | 0.00121 | 3.41 | 0.0104 | 0.0176
6 | C=Cc1c(F)ccc2cc(O)cc(-c3ncc4c(N(C)[C@@H]5C[C@H]5F)nc(OC[C@@]56CCCN5C[C@H](F)C6)nc4c3F)c12.O=C(O)C(F)(F)F (mixture of isomers) [Compound 16, 6-fluoro-4-(8-fluoro-4-((trans-2-fluorocyclopropyl)(methyl)amino)-2-(((2R,7aS)-2-fluorotetrahydro-1H-pyrrolizin-7a(5H)-yl)methoxy)pyrido[4,3-d]pyrimidin-7-yl)-5-vinylnaphthalen-2-ol 2,2,2-trifluoroacetic acid] | 0.00198 | 20.1 | 0.0516 | 0.0412
7 | C#Cc1c(F)ccc2cc(O)cc(-c3ncc4c(N(C)C5(C#N)CC5)nc(OC[C@@]56CCCN5C[C@H](F)C6)nc4c3F)c12 [Compound 59, 1-((7-(8-ethynyl-7-fluoro-3-hydroxy-naphthalen-1-yl)-8-fluoro-2-(((2R,7aS)-2-fluorotetrahydro-1H-pyrrolizin-7a(5H)-yl)methoxy)pyrido[4,3-d]pyrimidin-4-yl)(methyl)amino)cyclopropane-1-carbonitrile] | 0.0624 |  |  | 
8 | C#Cc1c(F)ccc2cc(O)cc(-c3ncc4c(N(C)C5CC5C)nc(OC[C@@]56CCCN5C[C@H](F)C6)nc4c3F)c12 (stereo partly drawn) [Compound 49, 5-ethynyl-6-fluoro-4-(8-fluoro-2-(((2R,7aS)-2-fluorotetrahydro-1H-pyrrolizin-7a(5H)-yl)methoxy)-4-(methyl(2-methylcyclo-propyl)amino)pyrido[4,3-d]pyrimidin-7-yl)naphthalen-2-ol] | 0.00199 | 32.3 | 0.0764 | 0.0797
9 | C#Cc1c(F)ccc2cc(O)cc(-c3ncc4c(N(C5CC5)C5CC5)nc(OC[C@@]56CCCN5C[C@H](F)C6)nc4c3F)c12 [Compound 48, 4-(4-(dicyclopropylamino)-8-fluoro-2-(((2R, 7aS)-2-fluorotetrahydro-1H-pyrrolizin-7a(5H)-yl)methoxy)pyrido[4,3-d]pyrimidin-7-yl)-5-ethynyl-6-fluoronaphthalen-2-ol] | 0.134 |  |  | 
10 | C#Cc1c(F)ccc2cc(O)cc(-c3ncc4c(NC5(C)CC5)nc(OC[C@@]56CCCN5C[C@H](F)C6)nc4c3F)c12 [Compound 10, 5-ethynyl-6-fluoro-4-(8-fluoro-2-(((2R,7aS)-2-fluorotetrahydro-1H-pyrrolizin-7a(5H)-yl)methoxy)-4-((1-methylcyclopropyl)amino)pyrido[4,3-d]pyrimidin-7-yl)naphthalen-2-ol] | 0.0242 |  |  | 
11 | C#Cc1c(F)ccc2cc(O)cc(-c3nc(OC)c4c(N(C)C5CC5)nc(OC[C@@]56CCCN5C[C@H](F)C6)nc4c3F)c12 [Compound 2, 4-(4-(cyclopropyl(methyl)amino)-8-fluoro-2-(((2R,7aS)-2-fluorotetrahydro-1H-pyrrolizin-7a(5H)-yl)methoxy)-5-methoxypyrido[4,3-d]pyrimidin-7-yl)-5-ethynyl-6-fluoronaphthalen-2-ol] | 0.00407 |  |  | 
12 | CCc1c(F)ccc2cc(O)cc(-c3ncc4c(N(C)[C@@H]5C[C@H]5F)nc(OC[C@@]56CCCN5C[C@H](F)C6)nc4c3F)c12.O=C(O)C(F)(F)F (mixture of isomers) [Compound 15, 5-ethyl-6-fluoro-4-(8-fluoro-4-((trans-2-fluorocyclopropyl)(methyl)amino)-2-(((2R,7aS)-2-fluorotetrahydro-1H-pyrrolizin-7a(5H)-yl)methoxy)pyrido[4,3-d]pyrimidin-7-yl)naphthalen-2-ol 2,2,2-trifluoroacetic acid] | 0.00316 |  |  | 
13 | C#Cc1c(F)ccc2cc(O)cc(-c3ncc4c(N(CC5CC5)C5CC5)nc(OC[C@@]56CCCN5C[C@H](F)C6)nc4c3F)c12 [Compound 14, 4-(4-(cyclopropyl(cyclopropylmethyl)amino)-8-fluoro-2-(((2R,7aS)-2-fluorotetrahydro-1H-pyrrolizin-7a(5H)-yl)methoxy)pyrido[4,3-d]pyrimidin-7-yl)-5-ethynyl-6-fluoronaphthalen-2-ol] | 0.018 |  |  | 
14 | C#Cc1c(F)ccc2cc(O)cc(-c3ncc4c(NC5(COC)CC5)nc(OC[C@@]56CCCN5C[C@H](F)C6)nc4c3F)c12 [Compound 58, 5-ethynyl-6-fluoro-4-(8-fluoro-2-(((2R,7aS)-2-fluorotetrahydro-1H-pyrrolizin-7a(5H)-yl)methoxy)-4-((1-(methoxymethyl)cyclopropyl)amino)pyrido[4,3-d]pyrimidin-7-yl)naphthalen-2-ol] | 0.0259 |  |  | 
15 | C#Cc1c(F)ccc2cc(O)cc(-c3ncc4c(N(CCOC)C5CC5)nc(OC[C@@]56CCCN5C[C@H](F)C6)nc4c3F)c12 [Compound 36, 4-(4-(cyclopropyl(2-methoxyethyl)amino)-8-fluoro-2-(((2R,7aS)-2-fluorotetrahydro-1H-pyrrolizin-7a(5H)-yl)methoxy)pyrido [4,3-d]pyrimidin-7-yl)-5-ethynyl-6-fluoro naphthalen-2-ol 2,2,2-trifluoroacetic acid] | 0.0617 |  |  | 
16 | C#Cc1c(F)ccc2cc(O)cc(-c3ncc4c(N(C)C5(C)CC5)nc(OC[C@@]56CCCN5C[C@H](F)C6)nc4c3F)c12 [Compound 19] | 0.0273 |  |  | 
17 | C#Cc1c(F)ccc2cc(O)cc(-c3ncc4c(NC5(C(F)(F)F)CC5)nc(OC[C@@]56CCCN5C[C@H](F)C6)nc4c3F)c12 [Compound 57, 5-ethynyl-6-fluoro-4-(8-fluoro-2-(((2R,7aS)-2-fluorotetrahydro-1H-pyrrolizin-7a(5H)-yl)methoxy)-4-((1-(trifluoromethyl)cyclopropyl)amino)pyrido[4,3-d]pyrimidin-7-yl)naphthalen-2-ol] | 0.157 |  |  | 
18 | C#Cc1c(F)ccc2cc(O)cc(-c3ncc4c(N(C)C5CC5(F)F)nc(OC[C@@]56CCCN5C[C@H](F)C6)nc4c3F)c12 (stereo partly drawn) [Compound 11, 4-(4-((2,2-difluorocyclopropyl)(methyl)amino)-8-fluoro-2-(((2R,7aS)-2-fluorotetrahydro-1H-pyrrolizin-7a(5H)-yl)methoxy)pyrido[4,3-d]pyrimidin-7-yl)-5-ethynyl-6-fluoronaphthalen-2-ol 2,2,2-trifluoroacetic acid] | 0.0125 |  |  | 
19 | C#Cc1c(F)ccc2cc(O)cc(-c3ncc4c(NC5C6COCC65)nc(OC[C@@]56CCCN5C[C@H](F)C6)nc4c3F)c12 (stereo partly drawn) [Compound 53, 4-(4-((3-oxabicyclo[3.1.0]hexan-6-yl)amino)-8-fluoro-2-(((2R,7aS)-2-fluorotetrahydro-1H-pyrrolizin-7a(5H)-yl)methoxy)pyrido[4,3-d]pyrimidin-7-yl)-5-ethynyl-6-fluoronaphthalen-2-ol] | 0.0171 |  |  | 
